Source: patent US9453023B2, “Substituted phenyl cycloalkyl pyrrolidine (piperidine) spirolactams and amides, preparation and therapeutic use thereof” (SANOFI, priority 2010, dated 2016)

Protein sequences, listed by entry. Tags and fused reporters are not part of them. Residues count along the entry.
UniProt Q865E1, 1-445: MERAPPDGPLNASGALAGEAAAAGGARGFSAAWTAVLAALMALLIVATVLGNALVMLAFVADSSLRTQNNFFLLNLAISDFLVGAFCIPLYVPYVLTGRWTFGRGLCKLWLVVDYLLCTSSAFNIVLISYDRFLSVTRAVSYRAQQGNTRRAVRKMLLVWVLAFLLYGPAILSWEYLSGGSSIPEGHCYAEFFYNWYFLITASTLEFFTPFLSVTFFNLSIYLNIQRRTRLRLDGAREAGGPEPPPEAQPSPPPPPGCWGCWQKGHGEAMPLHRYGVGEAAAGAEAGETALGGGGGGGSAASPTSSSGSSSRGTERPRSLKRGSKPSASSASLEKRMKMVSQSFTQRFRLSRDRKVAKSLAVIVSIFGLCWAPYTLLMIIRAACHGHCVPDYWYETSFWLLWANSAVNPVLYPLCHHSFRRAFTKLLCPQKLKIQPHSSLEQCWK

target: rhesus (Macacca Mulatta) H3 receptor (Macaca mulatta, UniProt Q865E1); test: Rhesus H3 radioligand binding assay ([3H]-Methylhistamine, WGA SPA); parameters: species or system rhesus monkey (Macacca Mulatta); settings: displacement of [3H]-Methylhistamine (2 nM) from rhesus H3 receptor membranes; Cheng-Prusoff
Method: (Genbank #AY231164). Stably transfected cultures were amplified in tissue culture flasks by standard tissue culture methods and induced to express rhesus H3 by exposure to 500 ng/ml tetracycline (Cellgro) for 24 hours. After induction, cells were dissociated from flasks utilizing Cell Stripper (Cellgro). Cells were centrifuged (1K×g, 5 min) and pellet frozen in an ethanol-dry ice bath to disrupt cell membranes. Frozen cell pellet was re-suspended in 5 mM HEPES (pH 7.4, Invitrogen) at 10 ml/1000 cm2 of harvested cells. The cell suspension was drawn through an 18 gauge needle (2-3×) followed by a 23 gauge needle (2-3×) to further disrupt cell membranes. The cell suspension was centrifuged (40K×g, 30 min). Cell membrane pellet was re-suspended in 5 mM HEPES (pH 7.4, Invitrogen) at a final protein concentration of 10 mg/ml. Rhesus H3 membranes were stored under liquid nitrogen prior to use in [3H]-Methylhistamine and GTPγS radioligand binding assays.
Rhesus H3 radioligand binding assay was performed using rhesus H3 receptor membranes (prepared as described above), [3H]-Methylhistamine (Perkin Elmer) and WGA SPA beads (wheat germ agglutinin scintillation proximity assay) beads (Amersham). The assay was performed in 96-well Opti-Plates (Packard). Each reaction contained 50 μl rhesus H3 membranes (20-30 μg total protein), 50 μl WGA SPA beads (0.1 μg) and 50 μl of 83 Ci/mmol [^3H]-Methylhistamine (final concentration 2 nM) and 50 μl of tested compound. The compounds of this invention and/or vehicle were diluted with binding buffer from 10 mM DMSO stocks. Assay plates were sealed with TopSeal (Perkin Elmer) and mixed on shaker (25° C., 1 hour). Assay plates were read on TopCount scintillation counter (Packard). Results were analyzed by Hill transformation and Ki values were determined by Cheng-Prusoff equation.

Row | SMILES | Ki
1 | COC(=O)C1CCC2(CC1)CCN(c1ccc([C@H]3CCC(N4CCCC4C)C3)cc1)C2=O (stereo partly drawn) [Example 5, 2-{4-[3-(2-Methyl-pyrrolidin-1-yl)-cyclopentyl]-phenyl}-1-oxo-2-aza-spiro[4.5]decane-8-carboxylic acid methyl ester] | 44.1 nM
2 | C[C@@H]1CCCN1[C@H]1CC[C@H](c2ccc(N3CCC4(CCN(C(=O)OC(C)(C)C)CC4)C3=O)c(F)c2)CC1 [Example 14, 2-{2-Fluoro-4-[4-((R)-2-methyl-pyrrolidin-1-yl)-cyclohexyl]-phenyl}-1-oxo-2,8-diaza-spiro[4.5]decane-8-carboxylic acid tert-butyl ester] | 6.61 nM
3 | C[C@H]1CCCN1C1CC[C@H](c2ccc(NC(=O)c3ccccc3)cc2)C1 (stereo partly drawn) [Example 29, N-{4-[(S)-3-((S)-2-Methyl-pyrrolidin-1-yl)-cyclopentyl]-phenyl}-benzamide] | 75.3 nM
